Values quoted from earlier work in patent US20230349886A1, “SYSTEMS AND METHODS FOR PREDICTING CARDIOTOXICITY OF MOLECULAR PARAMETERS OF A COMPOUND BASED ON MACHINE LEARNING ALGORITHMS” (UTI Limited Partnership, priority 2015, published 2023).
Read-outs that look alike come from different tables or passages of the source.

By UniProt entry, the sequences of proteins in these tests, tags left out. Where a name states a change or a piece, a line headed by the entry shows the natural chain unless it says otherwise. Residues count along the entry.
UniProt Q13936, 1-2138 isoform Q13936-12: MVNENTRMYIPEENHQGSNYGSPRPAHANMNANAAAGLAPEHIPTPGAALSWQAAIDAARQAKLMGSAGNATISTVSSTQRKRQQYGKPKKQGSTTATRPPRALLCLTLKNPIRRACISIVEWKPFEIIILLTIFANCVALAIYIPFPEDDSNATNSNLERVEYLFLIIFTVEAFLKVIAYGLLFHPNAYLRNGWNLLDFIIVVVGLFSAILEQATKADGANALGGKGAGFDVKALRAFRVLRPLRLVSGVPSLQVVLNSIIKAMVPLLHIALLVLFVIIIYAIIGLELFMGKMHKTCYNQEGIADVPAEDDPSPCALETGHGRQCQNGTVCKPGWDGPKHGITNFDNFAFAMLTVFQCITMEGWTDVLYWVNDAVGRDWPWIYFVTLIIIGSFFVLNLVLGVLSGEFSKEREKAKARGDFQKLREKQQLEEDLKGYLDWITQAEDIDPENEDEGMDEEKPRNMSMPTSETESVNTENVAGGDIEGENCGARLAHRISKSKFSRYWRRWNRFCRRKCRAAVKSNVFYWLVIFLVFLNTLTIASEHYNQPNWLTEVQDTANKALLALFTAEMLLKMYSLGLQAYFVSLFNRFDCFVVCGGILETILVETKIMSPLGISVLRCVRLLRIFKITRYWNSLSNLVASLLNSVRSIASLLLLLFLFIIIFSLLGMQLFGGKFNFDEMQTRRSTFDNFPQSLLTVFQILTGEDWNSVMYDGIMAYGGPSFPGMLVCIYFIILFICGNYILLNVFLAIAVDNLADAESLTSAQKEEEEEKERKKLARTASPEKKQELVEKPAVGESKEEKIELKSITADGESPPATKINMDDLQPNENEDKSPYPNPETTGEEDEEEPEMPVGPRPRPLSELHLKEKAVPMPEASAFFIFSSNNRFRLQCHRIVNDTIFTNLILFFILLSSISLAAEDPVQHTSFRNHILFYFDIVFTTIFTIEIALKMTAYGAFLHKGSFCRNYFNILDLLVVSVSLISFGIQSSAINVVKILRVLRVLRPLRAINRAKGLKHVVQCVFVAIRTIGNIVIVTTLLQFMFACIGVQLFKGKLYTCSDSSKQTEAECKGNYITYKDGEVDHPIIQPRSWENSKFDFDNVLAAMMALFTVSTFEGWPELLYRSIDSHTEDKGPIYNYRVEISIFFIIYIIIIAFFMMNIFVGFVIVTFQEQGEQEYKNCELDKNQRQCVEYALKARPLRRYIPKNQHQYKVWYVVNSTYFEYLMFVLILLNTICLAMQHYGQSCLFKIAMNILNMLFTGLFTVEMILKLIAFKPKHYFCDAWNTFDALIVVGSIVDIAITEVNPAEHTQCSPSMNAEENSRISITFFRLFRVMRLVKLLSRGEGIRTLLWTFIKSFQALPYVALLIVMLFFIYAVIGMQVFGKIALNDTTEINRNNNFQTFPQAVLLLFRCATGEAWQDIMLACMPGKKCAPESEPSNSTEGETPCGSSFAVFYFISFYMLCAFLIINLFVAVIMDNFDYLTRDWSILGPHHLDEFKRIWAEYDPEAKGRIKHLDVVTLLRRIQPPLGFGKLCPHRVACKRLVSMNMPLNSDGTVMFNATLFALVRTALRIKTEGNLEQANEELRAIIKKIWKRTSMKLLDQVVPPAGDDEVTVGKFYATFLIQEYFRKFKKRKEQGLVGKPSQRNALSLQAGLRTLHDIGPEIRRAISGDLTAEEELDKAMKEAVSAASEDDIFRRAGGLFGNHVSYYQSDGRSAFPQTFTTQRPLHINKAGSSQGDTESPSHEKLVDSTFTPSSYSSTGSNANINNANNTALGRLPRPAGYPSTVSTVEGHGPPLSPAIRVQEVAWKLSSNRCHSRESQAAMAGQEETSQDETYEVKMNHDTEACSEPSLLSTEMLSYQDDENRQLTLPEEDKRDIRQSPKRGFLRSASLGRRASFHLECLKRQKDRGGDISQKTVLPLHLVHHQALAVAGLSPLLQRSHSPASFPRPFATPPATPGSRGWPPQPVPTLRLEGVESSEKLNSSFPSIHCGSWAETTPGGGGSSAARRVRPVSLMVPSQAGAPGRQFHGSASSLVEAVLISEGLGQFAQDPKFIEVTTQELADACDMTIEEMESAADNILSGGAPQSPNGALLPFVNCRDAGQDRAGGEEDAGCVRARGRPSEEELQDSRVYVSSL
UniProt Q14524, 1-2016 isoform Q14524-4 V215L/S234P: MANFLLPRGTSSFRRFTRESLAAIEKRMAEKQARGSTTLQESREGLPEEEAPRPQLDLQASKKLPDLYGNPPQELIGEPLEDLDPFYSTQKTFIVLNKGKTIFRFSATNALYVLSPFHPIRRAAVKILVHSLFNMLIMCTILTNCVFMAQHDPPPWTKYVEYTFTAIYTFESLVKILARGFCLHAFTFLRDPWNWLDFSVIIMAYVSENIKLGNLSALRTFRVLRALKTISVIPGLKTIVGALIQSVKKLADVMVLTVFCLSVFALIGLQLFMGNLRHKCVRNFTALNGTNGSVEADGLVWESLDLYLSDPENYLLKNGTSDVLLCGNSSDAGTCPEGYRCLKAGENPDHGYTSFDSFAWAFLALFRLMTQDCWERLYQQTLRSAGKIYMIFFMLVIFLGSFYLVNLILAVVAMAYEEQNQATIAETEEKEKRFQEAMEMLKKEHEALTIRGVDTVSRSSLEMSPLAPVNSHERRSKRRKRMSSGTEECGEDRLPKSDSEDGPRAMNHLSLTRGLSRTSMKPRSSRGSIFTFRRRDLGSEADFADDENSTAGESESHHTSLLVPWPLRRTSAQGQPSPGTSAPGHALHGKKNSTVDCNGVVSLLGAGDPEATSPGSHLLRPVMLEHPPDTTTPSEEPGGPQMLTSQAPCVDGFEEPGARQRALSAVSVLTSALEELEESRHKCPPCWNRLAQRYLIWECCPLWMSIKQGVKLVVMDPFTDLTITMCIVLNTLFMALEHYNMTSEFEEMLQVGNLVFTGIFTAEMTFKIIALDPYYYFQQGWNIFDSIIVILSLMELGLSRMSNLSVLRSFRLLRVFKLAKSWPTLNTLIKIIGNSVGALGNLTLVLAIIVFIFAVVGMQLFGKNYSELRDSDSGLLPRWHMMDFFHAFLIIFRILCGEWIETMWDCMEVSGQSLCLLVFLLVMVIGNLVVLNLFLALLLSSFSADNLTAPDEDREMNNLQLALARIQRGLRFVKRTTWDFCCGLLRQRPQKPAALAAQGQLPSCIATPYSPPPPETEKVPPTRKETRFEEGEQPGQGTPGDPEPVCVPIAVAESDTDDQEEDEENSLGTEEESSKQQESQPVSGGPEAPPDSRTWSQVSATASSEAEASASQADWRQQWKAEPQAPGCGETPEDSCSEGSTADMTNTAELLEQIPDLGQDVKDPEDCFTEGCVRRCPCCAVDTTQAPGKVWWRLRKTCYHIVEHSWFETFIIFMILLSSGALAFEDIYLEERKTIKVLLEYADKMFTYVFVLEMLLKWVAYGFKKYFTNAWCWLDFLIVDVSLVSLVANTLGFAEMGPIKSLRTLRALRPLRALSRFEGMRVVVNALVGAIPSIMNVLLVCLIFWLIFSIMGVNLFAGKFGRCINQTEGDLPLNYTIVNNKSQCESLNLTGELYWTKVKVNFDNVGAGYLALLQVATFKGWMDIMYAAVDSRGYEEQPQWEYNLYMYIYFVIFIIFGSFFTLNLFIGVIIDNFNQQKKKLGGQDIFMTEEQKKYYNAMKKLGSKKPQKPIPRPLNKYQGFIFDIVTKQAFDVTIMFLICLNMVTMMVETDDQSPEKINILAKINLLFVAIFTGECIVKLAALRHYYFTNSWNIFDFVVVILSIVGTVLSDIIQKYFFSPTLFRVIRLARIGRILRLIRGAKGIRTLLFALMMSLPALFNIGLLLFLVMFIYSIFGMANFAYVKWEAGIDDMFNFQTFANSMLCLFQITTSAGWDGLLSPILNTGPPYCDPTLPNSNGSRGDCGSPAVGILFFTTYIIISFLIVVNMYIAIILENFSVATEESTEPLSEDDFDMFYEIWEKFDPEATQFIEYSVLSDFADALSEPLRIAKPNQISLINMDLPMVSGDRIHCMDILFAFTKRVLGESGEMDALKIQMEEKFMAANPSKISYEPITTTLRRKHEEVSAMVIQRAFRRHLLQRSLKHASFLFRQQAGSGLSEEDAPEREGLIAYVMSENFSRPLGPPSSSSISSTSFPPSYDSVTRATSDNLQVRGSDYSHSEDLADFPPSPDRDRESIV
UniProt Q12809: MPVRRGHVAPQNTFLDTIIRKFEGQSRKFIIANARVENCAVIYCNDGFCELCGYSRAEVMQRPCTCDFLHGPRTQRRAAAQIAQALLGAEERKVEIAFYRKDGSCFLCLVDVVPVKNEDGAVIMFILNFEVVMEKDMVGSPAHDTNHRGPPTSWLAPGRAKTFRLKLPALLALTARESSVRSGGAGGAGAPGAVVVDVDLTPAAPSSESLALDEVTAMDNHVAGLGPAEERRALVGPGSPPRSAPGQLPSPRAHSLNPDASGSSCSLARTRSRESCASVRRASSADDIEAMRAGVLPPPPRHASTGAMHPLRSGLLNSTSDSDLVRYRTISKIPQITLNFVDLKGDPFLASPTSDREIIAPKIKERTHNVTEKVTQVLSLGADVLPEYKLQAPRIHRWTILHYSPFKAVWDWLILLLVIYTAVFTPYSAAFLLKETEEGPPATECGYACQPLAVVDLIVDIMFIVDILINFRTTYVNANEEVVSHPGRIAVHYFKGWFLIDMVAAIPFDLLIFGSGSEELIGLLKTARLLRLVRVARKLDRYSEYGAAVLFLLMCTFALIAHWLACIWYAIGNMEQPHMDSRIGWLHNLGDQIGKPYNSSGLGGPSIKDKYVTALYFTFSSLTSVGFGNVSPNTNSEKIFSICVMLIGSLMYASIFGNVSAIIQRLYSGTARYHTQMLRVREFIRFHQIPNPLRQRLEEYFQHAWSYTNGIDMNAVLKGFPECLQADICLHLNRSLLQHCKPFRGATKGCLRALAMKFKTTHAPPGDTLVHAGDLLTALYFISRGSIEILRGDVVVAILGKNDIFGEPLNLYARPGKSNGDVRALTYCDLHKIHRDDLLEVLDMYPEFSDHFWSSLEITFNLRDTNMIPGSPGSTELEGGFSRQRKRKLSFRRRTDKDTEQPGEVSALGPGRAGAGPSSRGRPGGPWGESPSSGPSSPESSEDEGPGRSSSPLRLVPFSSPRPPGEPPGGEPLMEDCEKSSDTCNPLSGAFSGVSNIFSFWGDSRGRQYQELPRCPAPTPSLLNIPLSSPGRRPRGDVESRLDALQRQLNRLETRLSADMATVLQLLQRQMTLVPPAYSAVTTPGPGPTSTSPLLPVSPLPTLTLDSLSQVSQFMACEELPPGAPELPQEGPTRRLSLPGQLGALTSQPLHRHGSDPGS

Assays:
Cav1.2 = Cav1.2 (Homo sapiens, UniProt Q13936)
Nav1.5 = Nav1.5 (Homo sapiens, UniProt Q14524); details: read-out: NAV1.5 IC50; Brown dataset
hERG = hERG (Homo sapiens, UniProt Q12809)
[1] = Brown dataset; negative log of free drug concentration
[2] = read-out: CAV1.2 IC50, Brown dataset

CC(C)COCC(CN(Cc1ccccc1)c1ccccc1)N1CCCC1 (stereo not shown) [bepridil]
CAV1.2 pIC50 (Cav1.2; Brown dataset): 6 | CAV1p2-pIC50 (Cav1.2; experimental data, Kramer et al. 2013): 6 | IC50 (Cav1.2; read-out: CAV1p2-IC50, experimental data, Kramer et al. 2013): 1 µM | IC50 (Cav1.2; [2]): 1 µM

Cc1nc(Nc2ncc(C(=O)Nc3c(C)cccc3Cl)s2)cc(N2CCN(CCO)CC2)n1 [dasatinib]
IC50 (Nav1.5): 76.3 µM | IC50 (Cav1.2; [2]): 81.1 µM

O=C1NC(=O)C(c2ccccc2)(c2ccccc2)N1 [phenytoin]
HERG pIC50 (hERG): 3.833 665 | IC50 (hERG): 147 µM | pIC50 (hERG): 3.833

Cc1nc2n(c(=O)c1CCN1CCC(c3noc4cc(F)ccc34)CC1)CCCC2 [risperidone]
pFD [1]: 8.6989

N[C@@H](CC(=O)N1CCn2c(nnc2C(F)(F)F)C1)Cc1cc(F)c(F)cc1F [sitagliptin]
pIC50 (hERG; Table 11, calculated from HERG-IC50 of the Kramer et al. 2013 data): 3.758 | IC50 (hERG; read-out: HERG IC50, Brown dataset): 175 µM

CCN(CC)CCNC(=O)c1c(C)[nH]c(/C=C2\C(=O)Nc3ccc(F)cc32)c1C [sunitinib]
IC50 (Nav1.5): 16.5 µM
